Assay: Interfacial tension, Du Nouys ring tensiometer (Example 14), interface with toluene
Type: physicochemical
Conditions: 1% by weight solution, neutral pH (5 M NaOH)
Method: Surfactant molecules were tested for their ability to decrease the surface tension across the aqueous-organic interface.

For “2-(nonen-1-yl)succinic acid mono (2-cyclohexylethyl) ester [Example 3]”, the “IFT w/Toluene” value was under 0.01 b mN/m.

Reference: patent publication US8969612B2, “Low interfacial tension surfactants for petroleum applications” (Soane Energy, LLC, priority 2009, dated 2015)
